esBAF inh = SWI/SNF esBAF complex inhibition | 350,000 compounds, 2% hits | reporter increase, % at 12.5 µM | mouse ES cells, Bmi1-luciferase knock-in reporter, 24 h; 100% = twice the neutral-well signal | AID 602393; in the data active means activation above about 40%; inconclusive means no clear call, values can overlap the other calls;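 further: a rise in the Bmi1 reporter signal indicates esBAF inhibition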
miR122 inh = miR-122 inhibition in Huh7 cells; Huh7 miR-122 Renilla luciferase sensor, 48 h; neutral wells = 0, positive control = 100; activation (reporter increase), % at 12.5 µM; 340,000 compounds, 0.3% hits; AID 602342;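 active means mean replicate activation score at least 90 and every replicate individually at or above 90; inconclusive means only one of the two criteria met; inactive means neither criterion met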;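 further: higher luciferase means less miR-122 activity so hits act as miR-122 inhibitors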
Yeast UUG start = yeast start codon fidelity modulation. S. cerevisiae UUG-firefly luciferase reporter, luminescence/redox ratio. activity score, % at 18.7 µM. 0.13% of 350,000 active;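 active = replicate mean at a twofold rise or more, about +100% in these data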;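 also: firefly luciferase made from a UUG start codon reports start codon fidelity; reporter light over untreated wells divided by growth signal over untreated wells; some hits fall short of that in this replicate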
Wnt act = activators of Wnt/beta-catenin signaling; Wnt/beta-catenin reporter cell assay, activator, plate reader; activation, % at 9.35 µM; 300,000 compounds, 1.2% hits; AID 743398; in the data active means activation above about 30%, passing the limit was not always enough; inconclusive means no clear call, values can overlap the other calls
PglD DTNB = PglD (C. jejuni) enzyme inhibition. inhibition, % at 12.5 µM. 360,000 compounds, 0.098% hits. purified PglD enzyme, DTNB colorimetric CoA detection. AID 602405; in the data active means inhibition above about 16%, passing the limit was not always enough; inconclusive means no clear call, values can overlap the other calls
MITF act = increases MITF-driven TRPM1 promoter luciferase signal. activation, % at 12.5 µM. AID 588334. 300,000 compounds, 0.75% hits. SK-MEL-5 TRPM1-promoter luciferase, 24 h; % of positive control, neutral wells = 0;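 active means mean activation of at least 80% with every replicate also reaching 80%; inconclusive means mean reaches 80% but some replicate falls short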
Each line names hits and unclear results; the compound was inactive in the other large screens. A selection: hits, their analogues and other compounds. The true share with any hit is near 2.8%.

COc1ccccc1-c1nnc(-c2ccc(C)cc2)o1	none (no result: esBAF inh, MITF act)
CN1c2ccc(-c3ccc(F)cc3)cc2[C@@H]2[C@@H](CCN2C(=O)C2CCOCC2)[C@H]1CO	none (no result: Wnt act, MITF act)
CCCCN(C(=O)Cc1cccs1)c1nnc(-c2cccnc2)s1	esBAF inh 60, MITF act 99
O=C(C[C@H]1CC[C@H]2[C@@H](COC[C@@H](O)CN2S(=O)(=O)c2ccc(F)cc2)O1)NCCN1CCCCC1	none (no result: Wnt act, MITF act)
Cc1cnc(C(=O)OCC(=O)Nc2ccc(OCc3ccccc3)cc2)cn1	esBAF inh inconclusive, Wnt act 32, MITF act 96
Cc1cnc(C(=O)OCC(=O)NCc2ccccc2)cn1	none (no result: MITF act)
CCCCOc1ccc(C(=O)Nc2ccncc2)cc1	none (no result: esBAF inh, Yeast UUG start, Wnt act, PglD DTNB)
CCCCOc1ccc(NC(=O)c2cnc(C)cn2)cc1	esBAF inh 58
Cc1cnc(C(=O)Nc2ccc(F)c(F)c2)cn1	esBAF inh 62 (no result: Wnt act)
C[C@H]1CN([C@@H](C)CO)C(=O)c2cc(-c3cccc(C#N)c3)cnc2O[C@@H]1CN(C)C(=O)C1CC1	none (no result: Wnt act, MITF act)
O=C([C@@H]1[C@@H](CO)[C@@H]2Cn3c(ccc(-c4ccccc4)c3=O)[C@H]1N2CCC(F)(F)F)N1CCOCC1	none (no result: Yeast UUG start, Wnt act, MITF act)
Cc1c(C(=O)NCC(C)C)sc2nc(-c3ccc(F)cc3)cn12	esBAF inh 50 (no result: MITF act)
Cc1c(C(=O)Nc2ccncc2)sc2nc(-c3ccc(F)cc3)cn12	none (no result: miR122 inh)
CCCCN1C(=O)/C(=C/C=C2/CC(C)(C)CN2C)SC1=S	esBAF inh 93 (no result: Yeast UUG start, PglD DTNB)
O=C(Nc1nc2c(s1)CCCC2)c1ccc2ncsc2c1	Wnt act 42 (no result: MITF act)
O=C(Nc1nc2c(s1)CCCC2)c1ccc(N2C(=O)CCC2=O)cc1	esBAF inh 44 (no result: miR122 inh)
C[C@H]1CN([C@@H](C)CO)C(=O)c2cc(C3=CCCCC3)cnc2O[C@H]1CN(C)C(=O)c1ccc2c(c1)OCO2	none (no result: Wnt act, MITF act)
COCCOC(=O)N1C(=O)[C@@]2(c3cc(C#CCCO)ccc31)[C@H](C(=O)NC[C@H](O)c1ccccc1)[C@H]1C(=O)O[C@H](c3ccccc3)[C@H](c3ccccc3)N1[C@@H]2c1ccc(O)cc1	none (no result: esBAF inh, miR122 inh, Wnt act, MITF act)
COc1ccccc1S(=O)(=O)N[C@H]1CC[C@H](CCNC(=O)C2CCOCC2)O[C@@H]1CO	none (no result: miR122 inh, Yeast UUG start, Wnt act, MITF act)
O=S(=O)(c1cccc(F)c1)N1CC[C@@H]2[C@H]1c1cc(C#Cc3cccc(F)c3)ccc1N[C@@H]2CO	none (no result: Wnt act, MITF act)
Fc1ccc(N2CCN(Cc3ccccn3)CC2)cc1	Wnt act 40 (no result: esBAF inh, Yeast UUG start, PglD DTNB)
CCOC(=O)C1=C(C)N=c2s/c(=C\c3ccncc3)c(=O)n2C1c1ccc2c(c1)OCO2 (centres undefined)	none (no result: Wnt act)
CCOC(=O)C1=C(C)N=c2s/c(=C3\C(=O)Nc4ccccc43)c(=O)n2C1c1ccc2c(c1)OCO2 (centres undefined)	miR122 inh 91 (no result: Wnt act, MITF act)
CC(C)NC(=O)Nc1ccc2c(c1)C(=O)N([C@@H](C)CO)C[C@H](C)[C@H](CN(C)Cc1ccncc1)O2	none (no result: Wnt act, MITF act)
Clc1ccc(OCCCN2CCCCC2)c(Br)c1	esBAF inh 23 (no result: miR122 inh)
C[C@@H]1CN([C@H](C)CO)C(=O)c2cc(NS(=O)(=O)c3ccc(F)cc3)ccc2O[C@@H]1CN(C)S(=O)(=O)c1cn(C)cn1	none (no result: Yeast UUG start, Wnt act, PglD DTNB, MITF act)
Cc1ccc(S(=O)(=O)c2c(N)n(Cc3ccco3)c3nc4ccccc4nc23)cc1	miR122 inh 121 (no result: MITF act)
Cc1ccc(S(=O)(=O)Nc2nc3ccccc3nc2NCc2ccco2)cc1	esBAF inh 92 (no result: Yeast UUG start, Wnt act, PglD DTNB)
CCC(=O)N[C@H]1CC[C@H](CCNS(=O)(=O)c2ccc(Cl)cc2)O[C@@H]1CO	none (no result: miR122 inh, Wnt act, MITF act)
CC(=O)c1sc(NCc2ccccc2)nc1C	none
CC(=O)c1sc(NC(=O)c2ccc(Cl)cc2)nc1C	esBAF inh 51, MITF act 89 (no result: Yeast UUG start, PglD DTNB)
CC(=O)Nc1nc(C)c(C(C)=O)s1	none
CC(=O)c1sc(NC(=O)c2ccccc2C)nc1C	esBAF inh 76
Cc1ccc(C(=O)Nc2nc(=O)n(C)s2)cc1	none
CC(=O)c1sc(NCc2ccc(C)cc2)nc1C	esBAF inh 53, MITF act inconclusive
Cn1sc(NC(=O)c2ccc(Cl)cc2)nc1=O	esBAF inh 46 (no result: MITF act)
C[C@@H]1CN([C@@H](C)CO)C(=O)Cc2cc(NC(=O)CCCCCC(=O)Nc3ccccc3N)ccc2O[C@H]1CN(C)C(=O)Nc1ccc(F)cc1	none (no result: Yeast UUG start, Wnt act, PglD DTNB, MITF act)
O=C(c1cc([N+](=O)[O-])cc([N+](=O)[O-])c1)N(Cc1nnc(-c2ccccc2Cl)o1)C1CC1	none (no result: esBAF inh, miR122 inh, Yeast UUG start, PglD DTNB)
O=[N+]([O-])c1ccc(Cc2nnc(-c3ccccc3Cl)o2)cc1	MITF act 103 (no result: Yeast UUG start, PglD DTNB)
CO[C@@H]1CN(C)C(=O)c2cc(NC(=O)c3cccc(F)c3)ccc2OC[C@H](C)N(CC2CC2)C[C@H]1C	none (no result: miR122 inh, Wnt act, MITF act)
COc1c(C(=O)NNC(=O)c2ccccc2Cl)csc1Br	Wnt act 41 (no result: esBAF inh, miR122 inh, Yeast UUG start, PglD DTNB, MITF act)
COc1ccc(C(C#N)=Cc2ccc(N(C)CCC#N)cc2)cc1	esBAF inh 77, Wnt act 31 (no result: MITF act)
COc1ccc(C(C#N)=Cc2cc(OC)c(OC)c(OC)c2)cc1	none (no result: esBAF inh, miR122 inh, Yeast UUG start, PglD DTNB, MITF act)
COc1ccc(/C(C#N)=C/c2cccnc2)cc1	esBAF inh 42
CN(C)c1ccc(/C=C(\C#N)c2ccccc2)cc1	none (no result: miR122 inh, Wnt act)
C[C@@H]1CN([C@H](C)CO)C(=O)c2cc(-c3ccc(F)cc3)cnc2O[C@H]1CN(C)CC1CCCC1	none (no result: Wnt act, MITF act)
Cc1cc(NC(=O)CSc2cn(CCNC(=O)c3ccccc3)c3ccccc23)no1	esBAF inh 47 (no result: Wnt act)
CCCn1cc(SCC(=O)Nc2cc(C)on2)c2ccccc21	none
Cc1ccc(C(=O)NCCn2cc(SCC(=O)Nc3cc(C)on3)c3ccccc32)cc1	esBAF inh 58 (no result: MITF act)
Cc1ccc(C(=O)NCCn2cc(SCC(=O)N3CCOCC3)c3ccccc32)cc1	esBAF inh 53 (no result: MITF act)
C[C@@H]1CCCCO[C@@H](CN(C)Cc2ccc3c(c2)OCO3)[C@H](C)CN([C@H](C)CO)C(=O)c2cc(NC(=O)Nc3ccc(C(F)(F)F)cc3)ccc2O1	none (no result: Wnt act, MITF act)
O=C(COC(=O)c1cccc(S(=O)(=O)N2CCOCC2)c1)Nc1nc(-c2ccccc2Cl)cs1	esBAF inh 52 (no result: Yeast UUG start, Wnt act, PglD DTNB, MITF act)
CC(C)Sc1ncnc2c1oc1ccccc12	none (no result: Wnt act)
COc1ncnc2c1oc1ccccc12	esBAF inh 60
c1ccc(Nc2ncnc3c2oc2ccccc23)cc1	esBAF inh 88
Cc1nc(Nc2ccc3c(c2)OCO3)c2oc3ccccc3c2n1	none
Oc1ccc(Nc2ncnc3c2oc2ccccc23)cc1	none
c1ccc2c(c1)oc1c(Nc3ccc4c(c3)OCO4)ncnc12	esBAF inh 44, Wnt act 33
O=C(NCC[C@H]1CC[C@@H](NC(=O)C2CC2)[C@H](CO)O1)c1cc(Cl)cc(Cl)c1	none (no result: miR122 inh, Wnt act, MITF act)
Brc1ccc2nc(-c3c[nH]c4ccccc34)cn2c1	none
Cc1cccn2cc(-c3c[nH]c4ccccc34)nc12	esBAF inh 81
O=C(N[C@H]1CC[C@H](CCNS(=O)(=O)c2ccc(Cl)cc2)O[C@H]1CO)c1cccc(F)c1	none (no result: miR122 inh, Wnt act, MITF act)
COc1ccc(CCNC(=O)/C=C/c2ccco2)cc1OC	none (no result: MITF act)
